Results on one substance are retold here after patent US20180214612A1.

By UniProt entry, the sequences of proteins in these tests, tags left out. Residues count along the entry.
UniProt P02454, 152-1207 limits assumed, chain 1 of 2: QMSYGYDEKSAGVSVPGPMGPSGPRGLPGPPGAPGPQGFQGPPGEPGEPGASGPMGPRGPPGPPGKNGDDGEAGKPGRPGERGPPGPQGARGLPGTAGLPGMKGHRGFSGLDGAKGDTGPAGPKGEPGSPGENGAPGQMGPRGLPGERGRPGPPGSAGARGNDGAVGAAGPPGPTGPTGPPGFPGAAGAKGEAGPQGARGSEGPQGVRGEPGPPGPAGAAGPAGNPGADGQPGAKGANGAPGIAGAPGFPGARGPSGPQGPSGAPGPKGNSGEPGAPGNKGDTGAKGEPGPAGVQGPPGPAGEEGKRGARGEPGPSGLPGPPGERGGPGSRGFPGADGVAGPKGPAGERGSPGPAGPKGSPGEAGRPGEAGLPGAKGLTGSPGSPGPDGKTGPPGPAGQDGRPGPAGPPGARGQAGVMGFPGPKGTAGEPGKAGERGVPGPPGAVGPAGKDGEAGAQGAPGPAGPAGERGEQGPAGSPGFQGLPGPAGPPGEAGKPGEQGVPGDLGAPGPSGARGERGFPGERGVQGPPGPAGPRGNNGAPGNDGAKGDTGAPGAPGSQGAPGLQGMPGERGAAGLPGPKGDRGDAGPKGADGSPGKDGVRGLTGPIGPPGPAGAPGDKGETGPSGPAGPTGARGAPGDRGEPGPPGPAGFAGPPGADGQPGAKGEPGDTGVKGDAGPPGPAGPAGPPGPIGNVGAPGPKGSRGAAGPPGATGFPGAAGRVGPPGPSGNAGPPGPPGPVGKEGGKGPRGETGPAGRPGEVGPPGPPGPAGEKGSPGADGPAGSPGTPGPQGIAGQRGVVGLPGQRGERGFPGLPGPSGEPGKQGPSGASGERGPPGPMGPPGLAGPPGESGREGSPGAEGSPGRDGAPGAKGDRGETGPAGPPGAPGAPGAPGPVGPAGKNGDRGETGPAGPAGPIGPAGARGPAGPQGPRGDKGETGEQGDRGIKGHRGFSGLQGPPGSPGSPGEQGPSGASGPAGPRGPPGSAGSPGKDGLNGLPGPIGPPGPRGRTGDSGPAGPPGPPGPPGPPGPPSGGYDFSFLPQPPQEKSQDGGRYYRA

The target in this assay is Type I collagen prepared from rat tail tendon (rat) (UniProt P02454). Briefly: modified ELISA on plate coated with rat tail type I collagen, anti-polyhistidine detection, Scatchard analysis.

Turning to “Native human SDF-1α (NAT-SDF-1α), with 6×His tag (from UniProt O62657 22-89) (ligand)”, the Kd came out at 1.34 µM.
